Screens as filed in PubChem BioAssay.
GRP78 ERSR act = ER stress response induction in glioma; U87-MG GRP78 promoter luciferase reporter, 16 h; 420,000 compounds, 0.02% hits; Potency, µM, inactives show at the highest dose activation, actives largely listed as activators; further: potency means the concentration at half of the fitted maximal effect; series mostly up to about 76 µM; % of control where 0% means no effect; nearly all actives have a fitted effect of over 35% in size
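ERSR induction read as luciferase luminescence (Bright-Glo, 10 min at room temperature) in stably transfected human U87-MG glioma cells exposed to compounds for 16 h, using GRP78 as sensor.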
Mito fusion yeast = inhibitors of mitochondrial division or activators of mitochondrial fusion; 320,000 compounds, 0.23% hits; S. cerevisiae fusion-defective mutant growth rescue, CellTiterGlo 48 h; Potency, µM (top dose mostly 46.1 µM), without a hit: at the top dose growth rescue (activation), actives largely listed as activators; AID 485298; further: potency means the concentration at half of the fitted maximal effect; % of control where 0% means no effect; nearly all actives have a fitted effect of over 45% in size
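Temperature-sensitive fusion-defective S. cerevisiae (e.g. fzo1-1, mgm1-5) were grown with compound in YPEG medium (3% ethanol, 3% glycerol) for 48 hours at 37C. Growth rescue was measured as viability by CellTiterGlo luminescence after 10 minutes at ambient.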
Nrf2 ARE act = activators of Nrf2 (ARE) signaling; AREc32 ARE-luciferase reporter (MCF7-derived line), luminescence, 24 h; Potency, µM (highest dose often 46.1 µM), for inactives: at the top dose activation, actives largely listed as activators; 410,000 compounds, 0.31% hits; AID 624171; further: potency means the concentration at half of the fitted maximal effect; % of control where 0% means no effect; nearly all actives have a fitted effect of over 65% in size
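Quantitative high-throughput format: AREc32 reporter cells, 1000 per well, received compound by pin transfer and were incubated 24 hr at 37 deg C, 5% CO2, before Steady-Glo luminescence detection.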
miR-21 FLuc = miR-21 reporter, rising signal; Potency, µM (doses to about 38.3 µM), without a hit: at the top dose reporter change, positive = more light; HeLa miR-21 FLuc reporter, luciferase, 48 h; 340,000 tested, under 10 active; active = well fitted rising curve with a large enough effect; inconclusive = small, poorly fitted or top-dose-only effect; inactive = no such curve, though single readings can be large or run the other way;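 further: % of control where 0% means no effect; miR-21 action dims this reporter so a rising signal means less miR-21 action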
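HeLa cells endogenously expressing miR-21, stably carrying CMV-driven firefly luciferase with a downstream miR-21 binding site, 2000 cells/well. Titrations up to approximately 40 uM, 48 hours; luciferase luminescence read.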
A549 viability = counter-screen for Nrf2 inhibitors: cytotoxicity in A549 cells; 390,000 compounds, 0.16% hits; A549 ARE-Fluc cells, CellTiter-Fluor viability, 18-24 h; Potency, µM (series often up to 46 µM), without a hit: top-dose activity change, negative = cytotoxicity, most hits filed as inhibitors; further: potency means the concentration at half of the fitted maximal effect; on the % scale 0 is the no-effect control and ±100 the full control effect
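A549 ARE-Fluc cells in 5% FBS OPTI-MEM, 5000 cells/well, rested 2 h then exposed to compounds in concentration-response for 18-24 h at 37 °C. Viability by CellTiter-Fluor fluorescence (Ex 405/Em 525) after 30 min; luciferase luminescence (BugLite, 15 min, RT) read afterwards.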
Nrf2 inh = Nrf2 pathway inhibition. AID 504444. 360,000 compounds, 2.1% hits. A549 ARE-Fluc reporter, luciferase luminescence, 18-24 h. Potency, µM (highest dose often 46 µM), for inactives: at the highest dose activity change, negative = inhibition, most hits filed as inhibitors; further: potency means the concentration at half of the fitted maximal effect; on the % scale 0 is the no-effect control and ±100 the full control effect; nearly all actives have a fitted effect of over 60% in size
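A549 ARE_Fluc cells (5000/well, 5% FBS OPTI-MEM) pre-incubated 2 h, then treated with compounds 18-24 h at 37C/5% CO2 in concentration-response. CellTiter-Fluor viability read first; BugLite luciferase luminescence after 15 min at room temperature gives Nrf2 activity.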
* hit, by the source's call; ? = inconclusive; / = no result; [ ] = remark or other dose. Shown are actives, neighbours in structure and some others; about 2.3% of the full set was active somewhere. Unless noted, the call rests on the fitted dose curve; in most records, active means well fitted curve in the direction sought with a large enough effect; inconclusive means small, poorly fitted or top-dose-only effect, or another doubt; inactive means no such curve, though single readings can be large; an effect the other way counts as inactive or inconclusive.

[1] N#C/C(=C(/O)c1ccco1)c1nc2ccccc2[nH]1
[2] N#C/C(=C(/O)CCl)c1nc2ccccc2[nH]1
[3] CN(C)/C=C/c1oc2ccc(O)cc2c1[N+](=O)[O-]
[4] COc1ccc(CN(C)C(=O)c2oc3ccccc3c2CSC)cc1F
[5] CCN(CC)C(C)C(=O)Nc1c2c(cc3c1CCC3)CCC2 (configuration not stated)
[6] Oc1ccccc1-c1nc(NCc2cccnc2)c2ccccc2n1
[7] CCOC(=O)C1C(=O)C=C(c2ccc(Br)cc2)CC1c1ccco1 (configuration not stated)
[8] CCOC(=O)C1C(=O)C=C(c2cccc(NS(C)(=O)=O)c2)CC1c1ccco1 (configuration not stated)
[9] O=C(c1ccc(CSc2nc3ccncc3n2Cc2ccccc2)cc1)N1CCCCCC1
[10] Cc1cccc(Cn2c(SCc3ccc(C(=O)N4CCCCCC4)cc3)nc3ccncc32)c1

screen / no.,1,2,3,4,5,6,7,8,9,10
GRP78 ERSR act,5%,25µM*,2%,-5%,-4%,-5%,-3%,4%,2%,-1%
Mito fusion yeast,0%,-9%,-6%,-6%,-3%,6%,4%,-3%,/,/
Nrf2 ARE act,6.3µM*,?,7%,1%,-2%,-2%,0%,9%,1%,-1%
miR-21 FLuc,-26%,?,-36%,-15%,-2%,5%,3%,-12%,-8%,1%
A549 viability,10%,?,16µM*,2%,-7%,?,?,-1%,-11%,0%
Nrf2 inh,?,?,?,-8%,-1%,12µM*,23µM*,-9%,?,23µM*

[11] CCCCC(=O)OCC(=O)C1(O)Cc2c(O)c3c(c(O)c2C(OC2CC(NC(=O)C(F)(F)F)C(O)C(C)O2)C1)C(=O)c1c(OC)cccc1C3=O (configuration not stated)
[12] COc1cccc2c1C(=O)c1c(O)c3c(c(O)c1C2=O)CC(O)(C(C)=O)CC3OC1CC(O)C(O)C(C)O1 (configuration not stated)
[13] COC(=O)N(C)C[C@H]1OCc2cnnn2CCCC(=O)N([C@@H](C)CO)C[C@@H]1C
[14] O=C(CC1SC(=Nc2ccc(OC(F)F)cc2)N(CCC2=CCCCC2)C1=O)Nc1ccccc1F (configuration not stated)
[15] CCOc1ccccc1N=C1SC(CC(=O)Nc2ccc(OC)cc2OC)C(=O)N1CCC1=CCCCC1 (configuration not stated)
[16] Cc1noc(C)c1COc1ccc(C(=O)N2CCN(S(=O)(=O)c3ccc(Cl)cc3)CC2)cc1
[17] Cc1cccc(C(=O)NC(=S)NNC(=O)c2ccc(Cl)cc2)c1
[18] O=S(=O)(O)c1cc(O)c(N=Nc2ccc(O)cc2O)c2ccccc12
[19] CON(C)c1nc(OCCNC(=O)COc2ccc(Cl)cc2C)nc(N(C)C)n1
[20] COc1ccccc1-c1cc(C(F)(F)F)nc(N2CCOCC2)n1

screen / no.,11,12,13,14,15,16,17,18,19,20
GRP78 ERSR act,6%,?,-2%,-4%,-3%,-1%,35µM*,-8%,-3%,-5%
Mito fusion yeast,/,/,/,-1%,-1%,-2%,-13%,/,2%,2%
Nrf2 ARE act,-2%,3%,0%,7%,0%,0%,0%[9.22 µM],5%,-1%,2%
miR-21 FLuc,/,/,/,-11%,-2%,/,18%,/,2%,-21%
A549 viability,?,?,/,-17%,1%,-1%,-11%,21µM*,1%,-2%
Nrf2 inh,9.2µM*,10µM*,/,21µM*,-23%,0%,?,?,-24%,?

[21] CCCN(CC(=O)Nc1ccccc1OC)C(=O)c1ccc2[nH]c3c(c2c1)CC(C)CC3 (configuration not stated)
[22] Cc1ccc(OCC(=O)Nc2nc(-c3ccc(Br)cc3)ns2)cc1
[23] CCOc1ccc(CNC(=O)C2CCN(c3nnc(-n4c(C)ccc4C)s3)CC2)cc1
[24] NCC(=O)NNC(=O)OCC1c2ccccc2-c2ccccc21
[25] CC/C=C1/N=C2C(=O)N(C)C(=O)N=C2N(C)N1
[26] CN1N/C(=C\c2ccccc2)N=C2C(=O)N(C)C(=O)N=C21
[27] CCOC(=O)c1cc(-c2cccs2)nc2c1c(C)nn2-c1ccccn1
[28] O=S(=O)(NCCc1ccccc1)c1cnc(Cl)c(Br)c1
[29] C=CCn1cc([N+](=O)[O-])nc1C
[30] Cc1ccc2ccccc2c1C(O)c1ncc(-c2cccc(C(F)(F)F)c2)[nH]1 (configuration not stated)

screen / no.,21,22,23,24,25,26,27,28,29,30
GRP78 ERSR act,-2%,-1%,/,1%,-9%,-11%,-6%,-2%,0%,-3%
Mito fusion yeast,25%,/,/,2%,/,/,2%,10%,-4%,/
Nrf2 ARE act,2%,1%,6%,-1%[9.22 µM],/,/,0%,?,0%[9.22 µM],0%
miR-21 FLuc,/,-22%,23%,-4%,/,/,-2%,5%,1%,/
A549 viability,?,0%,2%,7%,-6%,5.8µM*,-20%,-1%,18%,/
Nrf2 inh,23µM*,?,15µM*,-4%,?,?,23µM*,-5%,-2%,/

4 records picked at random from those above, as already listed:
[29] C=CCn1cc([N+](=O)[O-])nc1C
[24] NCC(=O)NNC(=O)OCC1c2ccccc2-c2ccccc21
[23] CCOc1ccc(CNC(=O)C2CCN(c3nnc(-n4c(C)ccc4C)s3)CC2)cc1
[30] Cc1ccc2ccccc2c1C(O)c1ncc(-c2cccc(C(F)(F)F)c2)[nH]1 (configuration not stated)

screen / no.,29,24,23,30
GRP78 ERSR act,0%,1%,/,-3%
Mito fusion yeast,-4%,2%,/,/
Nrf2 ARE act,0%[9.22 µM],-1%[9.22 µM],6%,0%
miR-21 FLuc,1%,-4%,23%,/
A549 viability,18%,7%,2%,/
Nrf2 inh,-2%,-4%,15µM*,/

Other structures follow:
[31] Cc1cc(/C=C2\SC(=S)N(Cc3ccco3)C2=O)c(C)n1-c1cccnc1
[32] Cc1cc(/C=C2/SC(=S)N(c3cccc(C(F)(F)F)c3)C2=O)c(C)n1-c1cccnc1
[33] CCNC(=O)c1ccc(-n2c(-c3ccccc3)cc3c2CCCCC3)cc1
[34] CC(C)OCCCNC(=O)c1ccc(-n2c(-c3ccccc3)cc3c2CCCC3)cc1
[35] CCOCCCNC(=O)c1ccc(-n2c(-c3ccccc3)cc3c2CCCCC3)cc1
[36] CCCNC(=O)c1ccc(-n2c(-c3ccccc3)cc3c2CCCCC3)cc1
[37] COCCNC(=O)c1ccc(-n2c(-c3ccccc3)cc3c2CCCCC3)cc1
[38] CN(C)CCNC(=O)c1ccc(-n2c(-c3ccccc3)cc3c2CCCC3)cc1
[39] O=C(/C=C/c1ccccc1)NCC(=O)N/N=C/c1ccccc1[N+](=O)[O-]
[40] CCC(C)NC(=O)c1ccc(-n2c(-c3ccccc3)cc3c2CCCC3)cc1 (configuration not stated)
[41] COc1ccccc1NS(=O)(=O)c1cccc(NC(=O)Nc2ccccc2)c1
[42] CCn1ccc(C(=O)Nc2ccc(S(=O)(=O)Nc3ccccc3OC)cc2)n1
[43] COc1ccccc1NS(=O)(=O)c1cccc(NC(=O)Nc2ccc(Cl)cc2)c1

screen / no.,31,32,33,34,35,36,37,38,39,40,41,42,43
GRP78 ERSR act,4%,-6%,-2%,0%,-2%,-6%,2%,-5%,-1%,-3%,-5%,5%,4%
Mito fusion yeast,-5%,/,/,/,/,/,/,/,2%,/,0%,6%,11%
Nrf2 ARE act,3%,1%,?,?,?,13µM*,16µM*,11µM*,10%,?,0%,2%,5%
miR-21 FLuc,-11%,/,28%,?,?,-1%,-6%,20%,-4%,-1%,?,14%,?
A549 viability,0%,?,?,?,-2%,4%,-9%,0%,2%,-2%,-12%,-12%,?
Nrf2 inh,7%,5.8µM*,?,?,18µM*,2%,?,23µM*,-6%,18µM*,2.6µM*,15µM*,?
